This passage reports Rblood_plasma results from ChEMBL document CHEMBL3526069, “Human pharmacokinetic prediction of UDP-glucuronosyltransferase substrates with an animal scale-up approach” (Drug Metab Dispos, 2011).

The test system of series [1] is Nucleic Acid. The note with it: mouse, in vivo.
The test system of series [2] is Nucleic Acid. The note with it: dog, in vivo.
The test system of series [3] is Nucleic Acid. The note with it: rat, in vivo.
Series [4] relates to Nucleic Acid. The note with it: human, plasma.
Series [5] has as its system Nucleic Acid. The note with it: rhesus monkey, in vivo.

Turning to `NS(=O)(=O)c1cc(C(=O)O)c(NCc2ccco2)cc1Cl` [FUROSEMIDE], the Rblood_plasma in the series with Nucleic Acid [1] is recorded as 0.96; in the series with Nucleic Acid [2] it was 1.46; in the series with Nucleic Acid [3], 1.33; in the series on Nucleic Acid [4], 0.7; with Nucleic Acid [5] it was 1.13.
